From patent publication US8741916B2, “1,3,8-trisubstituted-1,3,8-triaza-spiro[4.5]decan-4-one derivatives as ligands of the ORL-1 receptor” (dated 2014) come the findings set out here.

Protein sequences, listed by entry. Tags and fused reporters are not part of them.
UniProt P33535, whole entry: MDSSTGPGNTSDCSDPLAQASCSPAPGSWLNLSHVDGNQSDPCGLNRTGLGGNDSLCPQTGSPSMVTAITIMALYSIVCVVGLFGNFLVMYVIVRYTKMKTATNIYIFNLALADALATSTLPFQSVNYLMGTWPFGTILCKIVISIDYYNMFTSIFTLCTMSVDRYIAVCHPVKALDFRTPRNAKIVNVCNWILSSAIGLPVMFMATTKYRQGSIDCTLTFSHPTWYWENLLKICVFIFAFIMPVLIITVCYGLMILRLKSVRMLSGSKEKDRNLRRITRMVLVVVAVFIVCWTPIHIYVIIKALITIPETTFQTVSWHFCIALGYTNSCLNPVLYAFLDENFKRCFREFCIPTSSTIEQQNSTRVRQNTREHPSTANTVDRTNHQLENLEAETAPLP
UniProt P41146, whole entry: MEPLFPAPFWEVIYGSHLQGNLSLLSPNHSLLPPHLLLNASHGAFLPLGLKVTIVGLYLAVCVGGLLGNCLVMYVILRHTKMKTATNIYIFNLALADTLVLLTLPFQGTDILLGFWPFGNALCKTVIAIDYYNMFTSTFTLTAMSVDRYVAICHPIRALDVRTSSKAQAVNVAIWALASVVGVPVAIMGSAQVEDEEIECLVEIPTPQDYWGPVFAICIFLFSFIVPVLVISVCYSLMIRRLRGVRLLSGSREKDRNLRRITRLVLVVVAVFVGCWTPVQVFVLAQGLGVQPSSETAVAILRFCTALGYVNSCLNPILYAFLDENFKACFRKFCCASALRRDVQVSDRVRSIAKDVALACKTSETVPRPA

pKi: −log10 of the molar value.

One experiment has as its target Mu opioid receptor (Rattus norvegicus, UniProt P33535). The experiment can be described thus: Rat brain mu opioid receptor binding ([3H]DAMGO). Particulars: read-out: Mu Ki; rat forebrain membranes; mean where tested more than once.
The target of experiment [1] is recombinant human nociceptin receptor (ORL-1) (Homo sapiens, UniProt P41146). Kind of experiment: Nociceptin receptor binding assay ([3H]-nociceptin, HEK293 cell membranes). Conditions: read-out: ORL1 Ki, mean where tested more than once. The method, then:
The nociceptin receptor binding assay measures the binding of [Leucyl-3,4,5-^3H]-nociceptin (90 Ci/mmol, Perkin Elmer) to the recombinant human nociceptin receptor (ORL-1, GeneBank Accession number X77130) on HEK293 cell membranes (Perkin-Elmer).
The cell membranes were thawed, reconstituted and homogenized 1:20 (v/v) in an assay buffer containing 50 mM HEPES, 1 mM EDTA and 10 mM MgCl2 (pH 7.4). To a 96-well plate containing 50 μL/well of compound, 50 μL/well of membranes were added. Some wells contained 5 μM nociceptin to account for nonspecific binding. The radioligand was added at a 0.4 nM concentration in a volume of 100 μL/well. The mixture was incubated for 2 hours at 25° C. Following the incubation period, the samples were collected onto PEI-presoaked, glass-fiber 96-well filter plates using the Filtermate harvester (Perkin-Elmer). Each plate was washed nine times with ice-cold assay buffer to remove free radioligand. After drying, 30 μL/well of Microscint-20 (Perkin-Elmer) were added. The plates were sealed and counted on a Packard Top Count scintillation counter to determine membrane-bound radioactivity.
For each test compound, the total binding was measured at several concentrations and the IC50 (the concentration at which 50% of the binding is inhibited) was determined from the graphical display of X=logarithm of concentration versus Y=response, using the following calculation:
For some of the test compounds, the Ki was determined by nonlinear curve fitting using the Cheng-Prussoff equation: Ki=(IC50)/(+[radioligand]/Kd)
For the ORL-1 binding, the Kd was 0.2 nM. The [radioligand] was the same as the Kd.
Representative compounds of the present invention were tested according to the procedure as described in Example 28 above, with results as listed in Table 3. (Note that for the compounds that were tested more than once, the value listed in Table 3 is the calculated mean.)

By pKi is commonly meant −log10 of the Ki, conventionally taken in molar units. Take `O=C1N(CCn2cc(CO)nn2)CN(c2ccc(F)cc2)C12CCN([C@@H]1Cc3cccc4cccc1c34)CC2`: the pKi is 8.30 at Mu opioid receptor and 9.48 in experiment [1]. As to `COCc1cn(CCN2CN(c3ccc(F)cc3)C3(CCN([C@@H]4Cc5cccc6cccc4c56)CC3)C2=O)nn1`, the pKi at Mu opioid receptor was 8.41; in experiment [1], 10.30. For `O=C1N(CCn2cc(C3CC3)nn2)CN(c2ccc(F)cc2)C12CCN([C@@H]1Cc3cccc4cccc1c34)CC2`, in that order: 8.33 and 9.30. For `COCc1cn(CCN2CN(c3ccc(F)cc3)C3(CCN([C@H]4Cc5cccc6cccc4c56)CC3)C2=O)nn1`, in that order: 7.75 and 9.43.

`O=C1N(CCn2cc(C3CC3)nn2)CN(c2ccc(F)cc2)C12CCN([C@H]1Cc3cccc4cccc1c34)CC2`: the pKi in experiment [1] is 9.05. As to `O=C1N(CCCn2cc(CO)nn2)CN(c2ccc(F)cc2)C12CCN([C@@H]1Cc3cccc4cccc1c34)CC2`, in experiment [1], the pKi is less than 9.00.

`O=C1N(CCn2cc(CO)nn2)CN(c2ccc(F)cc2)C12CCN([C@H]1Cc3cccc4cccc1c34)CC2`: the pKi in experiment [1] was 9.03. On to `O=C1N(CCCn2cc(CO)nn2)CN(c2ccc(F)cc2)C12CCN([C@H]1Cc3cccc4cccc1c34)CC2`, for which the pKi was 8.05 on Mu opioid receptor and 9.23 in experiment [1].
